What was measured:
Test in all cases: cell-based or functional assay
[1] = biological target: M64-AAEIR
[2] = biological target: M64-DAEIR
[3] = biological target: M64-EAEIR
[4] = biological target: M64-FAEIR
[5] = biological target: M64-LAEIR

IC50 (inhibition of pNPA hydrolysis, colorimetric assay) [1]: 0.02 µM | IC50 (inhibition of pNPA hydrolysis, colorimetric assay) [2]: 0.089 µM | IC50 (inhibition of pNPA hydrolysis, colorimetric assay) [3]: 0.63 µM | IC50 (inhibition of pNPA hydrolysis, colorimetric assay) [4]: 0.018 µM | IC50 (inhibition of pNPA hydrolysis, colorimetric assay) [5]: 0.028 µM
Substance: wild-type human carbonic anhydrase II (hCAII), SEQ ID NO: 7 (from UniProt P00918 4-259) (enzyme)

Reference: patent US20220283175A1, “METALLOENZYMES FOR BIOMOLECULAR RECOGNITION OF N-TERMINAL MODIFIED PEPTIDES” (Encodia, Inc., priority 2020, published 2022)
